# Reference: US9353061B2, “3,5,N-trihydroxy-alkanamide and derivatives: method for making same and use thereof” (Academia Sinica, priority 2012, dated 2016)
# System: HCT116 colorectal cancer cells
# Test: Cell viability (MTT) under normoxia or hypoxia, oxaliplatin resistance
# Settings: oxaliplatin 5 μM
substance,measurement,setting,value
oxaliplatin,cytotoxicity in HCT116 cells under normoxia,"72 hours, normoxia",induced cytotoxicity
same,cytotoxicity in HCT116 cells under hypoxia,hypoxia for the first 24 hours,resistance was seen
